In patent US20090142411A1, “Composition and Device Comprising an Inorganic Component (Metal Compound) for Coagulation of Protein-Containing Fluids” (SMITH & NEPHEW, PLC, priority 2005, published 2009):

## silver (I) oxide
  dissolution in protein-containing fluid: dissolve significantly
protein-containing fluid, via silver hydroxide species formed
  effect on rate of dissolution of gold (III) oxide: enhance the rate of dissolution of the gold (III) oxide
